Values quoted from earlier work as cited in patent US20140228302A1, “COMPOUNDS, COMPOSITIONS AND METHODS FOR TREATING OR PREVENTING HYPOXIC OR ISCHEMIC INJURY” (FRED HUTCHINSON CANCER RESEARCH CENTER, priority 2010, published 2014).

Settings: rat, in vivo, iv, 1 mg/kg; cited from earlier work

In the case of sodium sulfide, the “Free sulfide in blood” value is listed as “robust elevation”.
